Literature values in paper PMC12530842, “Potent, Selective, and Drug‐Like G Protein‐Coupled Receptor Kinase 5 and 6 Inhibitors: Design, Synthesis, and X‐Ray Structural Studies” (Chemmedchem, 2025).

Protein sequences, listed by entry. Tags and fused reporters are not part of them.
UniProt P34947, whole entry, looked up: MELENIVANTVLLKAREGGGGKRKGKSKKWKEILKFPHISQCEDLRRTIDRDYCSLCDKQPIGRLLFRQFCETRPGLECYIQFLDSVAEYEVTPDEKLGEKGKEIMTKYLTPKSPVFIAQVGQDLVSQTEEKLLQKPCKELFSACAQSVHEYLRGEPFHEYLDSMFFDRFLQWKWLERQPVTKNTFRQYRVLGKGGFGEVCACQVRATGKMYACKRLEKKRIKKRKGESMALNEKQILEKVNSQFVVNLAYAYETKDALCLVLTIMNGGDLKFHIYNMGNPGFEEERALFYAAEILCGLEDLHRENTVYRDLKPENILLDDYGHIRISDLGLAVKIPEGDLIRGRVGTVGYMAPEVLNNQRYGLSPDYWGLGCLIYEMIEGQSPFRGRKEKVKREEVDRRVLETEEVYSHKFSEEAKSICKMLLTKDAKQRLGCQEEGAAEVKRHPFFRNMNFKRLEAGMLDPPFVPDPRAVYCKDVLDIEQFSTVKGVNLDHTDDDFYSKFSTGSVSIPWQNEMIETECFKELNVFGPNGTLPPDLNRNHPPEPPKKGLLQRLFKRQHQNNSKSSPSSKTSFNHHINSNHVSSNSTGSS

Target: GRK5 (Homo sapiens, UniProt P34947)
Settings: read-out: GRK5 IC50; earlier work; cited from earlier work

In the case of `Cc1[nH]c(/C=C2\C(=O)Nc3ccc(C(=O)N[C@H](C)c4ccc(F)cc4)cc32)c(C)c1NC(=O)CCl` [compound 1], the IC50 is listed as 8.6 nM.
